Only some compounds are listed: those with a hit (about 3.7% of all), similar ones and a draw of the others.
Nrf2 block: Nrf2 pathway inhibition; A549 ARE-Fluc reporter, luciferase luminescence, 18-24 h; Potency, µM (highest dose often 46 µM), inactives show top-dose activity change, negative = inhibition, actives largely listed as inhibitors; 360,000 compounds, 2.1% hits; further: potency means the concentration at half of the fitted maximal effect; on the % scale 0 is the no-effect control and ±100 the full control effect; nearly all actives have a fitted effect of over 60% in size
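Two sequential reads on A549 ARE_Fluc cells exposed to compound for 18-24 h: a CellTiter-Fluor fluorescence read for viability, then a luciferase luminescence read for Nrf2/ARE activity.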
A549 tox: kills or reduces viability of A549 cells in Nrf2 counter-screen; A549 ARE-Fluc cells, CellTiter-Fluor viability, 18-24 h; Potency, µM (top dose mostly 46 µM), for inactives: top-dose activity change, negative = cytotoxicity, actives largely listed as inhibitors; 390,000 compounds, 0.16% hits; AID 504648; further: potency means the concentration at half of the fitted maximal effect; on the % scale 0 is the no-effect control and ±100 the full control effect
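A549 ARE-Fluc cells in 5% FBS OPTI-MEM, 5000 cells/well, rested 2 h then exposed to compounds in concentration-response for 18-24 h at 37 °C. Viability by CellTiter-Fluor fluorescence (Ex 405/Em 525) after 30 min; luciferase luminescence (BugLite, 15 min, RT) read afterwards.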
miR-21 FLuc: miR-21 reporter, rising signal. HeLa miR-21 FLuc reporter, luciferase, 48 h. Potency, µM (highest dose often 38.3 µM), for the others: at the highest dose reporter change, positive = more light. 340,000 tested, under 10 active. AID 2288; active = well fitted rising curve with a large enough effect; inconclusive = small, poorly fitted or top-dose-only effect; inactive = no such curve, though single readings can be large or run the other way;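 further: % of control where 0% means no effect; miR-21 action dims this reporter so a rising signal means less miR-21 action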
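Compounds were titrated across several concentrations (up to approximately 40 uM) and incubated 48 hours with HeLa miR-21-FLuc reporter cells (miR-21 target sequence downstream of FLuc, endogenous miR-21). Readout was firefly luciferase luminescence after lytic detection reagent.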
ClpP mod: qHTS Assay for Activators of ClpP; ATP-dependent Clp protease proteolytic subunit (Bacillus subtilis (strain 168)), P80244; purified B. subtilis ClpP, FRET peptide cleavage, 20 min; Potency, µM (titrated, usually from 57.5 µM), inactives show top-dose activity change, negative = active; 340,000 compounds, 1.9% hits; active means well fitted falling curve with a large enough effect; inconclusive means small, poorly fitted or top-dose-only effect; inactive means no such curve, though single readings can be large or run the other way; further: potency means the concentration at half of the fitted maximal effect; the source files actives as falling curves though it sought activators and does not explain the sign; nearly all actives have a fitted effect of over 65% in size
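Purified B. subtilis ClpP, 10 microg/mL final in Tris/HCl pH8 with KCl, BSA, glycerol and Tween-20, cleaved an Abz/nitrotyrosine-quenched decapeptide. Fluorescence (ex 320, em 430) was read at 0 and 20 min at room temperature. Delta was normalized to 5.8 microM ADEP and DMSO/no-enzyme controls.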
Nrf2 ARE act: activators of Nrf2 (ARE) signaling; AREc32 ARE-luciferase reporter (MCF7-derived line), luminescence, 24 h; 410,000 compounds, 0.31% hits; AID 624171; Potency, µM (series often up to 46.1 µM), for the others: at the top dose activation, usual class: activators; further: potency means the concentration at half of the fitted maximal effect; % of control where 0% means no effect; nearly all actives have a fitted effect of over 65% in size
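Nrf2 activation is followed as ARE-luciferase induction in the AREc32 line after one day of compound treatment; luminescence is read with Steady-Glo.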
p53 reactivation: re-activators of mutant p53 | H1299 p53-A138V BP100-luciferase reporter, luminescence, 24 h | Potency, µM (top dose mostly 92.2 µM), inactives show at the highest dose activity change, positive = activation, most hits filed as activators | 320,000 compounds, 0.063% hits; further: potency means the concentration at half of the fitted maximal effect; % of control where 0% means no effect; nearly all actives have a fitted effect of over 45% in size
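H1299 (p53-null), stable ts p53-A138V + BP100-Luc; 1000 cells/well, Opti-MEM/10% FBS; cpd 4 pt, 1:5; 24 h, 37 deg C, 5% CO2; detection reagent 10 min RT; luminescence.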
* = called active by the depositor; ? = inconclusive; · = not tested or not shown; ! = a repeat was not active. Unless noted, the call rests on the fitted dose curve; in most records, active means well fitted curve in the direction sought with a large enough effect; inconclusive means small, poorly fitted or top-dose-only effect, or another doubt; inactive means no such curve, though single readings can be large; an effect the other way counts as inactive or inconclusive.

entry | SMILES | miR-21 FLuc | Nrf2 ARE act | Nrf2 block
1 | CC(=NNC(=S)N1CCCCC1)c1ccccn1 | · | 18% | ·
2 | COc1ccc(-c2cn3cc(Cl)ccc3n2)cc1OC | -76% | 26% | 13%
3 | Clc1ccc2nc(-c3ccc(Br)s3)cn2c1 | -3% | ? | ?
4 | Cc1ccc(NC(=O)c2ccc(-n3cncn3)c([N+](=O)[O-])c2)cc1F | · | 0% | -7%
5 | O=C(Nc1ccc(F)cc1)c1ccc(-n2cncn2)c([N+](=O)[O-])c1 | 2% | 3% | 23µM*
6 | CS(=O)(=O)c1nc(-c2ccccc2)cc(C(F)(F)F)n1 | ? | ? | 23µM*
7 | Cc1cc(NC(=O)CCS(=O)(=O)c2nc(-c3ccccc3)cc(C(F)(F)F)n2)no1 | ? | -4% | ·
8 | CC(C)c1cc2c(s1)c1cnn(Cc3ccccc3F)c(=O)c1n2C | · | · | ?
9 | COc1ccc(NC(=O)CN2C(=O)C(C)(C)c3cc(S(=O)(=O)N4CCCCC4)ccc32)cc1Cl | 27% | 5% | ·
10 | O=C(NNc1ccccc1)C(=O)NNS(=O)(=O)c1ccc([N+](=O)[O-])cc1 | 16% | 1% | 18µM*

entry | A549 tox | p53 reactivation | ClpP mod
1 | · | · | ?
2 | 3% | 15% | ?
3 | 14% | -6% | 20µM*
4 | -1% | 4% | -2%
5 | -6% | 0% | ·
6 | ? | -41% | -5%
7 | -2% | -24% | -1%
8 | -3% | · | ·
9 | ? | · | 0%
10 | -15% | -1% | ·

(cont.)
entry | SMILES | miR-21 FLuc | Nrf2 ARE act | Nrf2 block
11 | O=C(NNc1ccc([N+](=O)[O-])cc1)Nc1ccccc1 | 1% | 3% | ?
12 | Nc1c(Cl)ncnc1N/N=C/c1ccc2ccccc2n1 | -33% | ? | 13µM*
13 | Cc1cc(C)c(OCC(=O)Nc2ccc(NC(=O)c3ccco3)cc2)c([N+](=O)[O-])c1 | -14% | 0% | ?
14 | Cc1ccc(NC(=O)c2ccco2)c([N+](=O)[O-])c1 | -53% | 11µM* | 93%
15 | COc1ccc(NC(=O)c2ccco2)c([N+](=O)[O-])c1 | -62% | 12% | 3%
16 | Oc1ccc(CN2CCCCC2)nc1-c1ccccc1 | -5% | 0% | 25%
17 | C=C1C=C(C)n2ncc(C(=O)Nc3cccc4cnccc34)c2N1 | · | · | ·
18 | NCCCn1c(C(=O)c2cc(Cl)c(N)c(Cl)c2)c2ccc(C(F)(F)F)cc2[n+]1[O-] | · | 4% | 16%
19 | NCCCn1c(C(=O)c2cc(Cl)c(N)c(Cl)c2)c2ccc([N+](=O)[O-])cc2[n+]1[O-] | · | ? | 157%
20 | Cc1cccn2c(=O)nc(SCC(=O)N3CCC(Cc4ccccc4)CC3)nc12 | · | 2% | ?

entry | A549 tox | p53 reactivation | ClpP mod
11 | -14% | · | 1%
12 | ? | ? | -1%
13 | 3% | -5% | 32µM*
14 | -1% | 21% | ·
15 | -14% | ? | -5%
16 | 4% | 11% | 35µM*
17 | · | · | -8%
18 | -19% | -2% | 0%
19 | 18µM* | 7% | -2%
20 | 1% | -4% | -18%

Random excerpt: four records from the list
entry | SMILES | miR-21 FLuc | Nrf2 ARE act | Nrf2 block
20 | Cc1cccn2c(=O)nc(SCC(=O)N3CCC(Cc4ccccc4)CC3)nc12 | · | 2% | ?
16 | Oc1ccc(CN2CCCCC2)nc1-c1ccccc1 | -5% | 0% | 25%
15 | COc1ccc(NC(=O)c2ccco2)c([N+](=O)[O-])c1 | -62% | 12% | 3%
12 | Nc1c(Cl)ncnc1N/N=C/c1ccc2ccccc2n1 | -33% | ? | 13µM*

entry | A549 tox | p53 reactivation | ClpP mod
20 | 1% | -4% | -18%
16 | 4% | 11% | 35µM*
15 | -14% | ? | -5%
12 | ? | ? | -1%

More entries.
entry | SMILES | miR-21 FLuc | Nrf2 ARE act | Nrf2 block
21 | COc1cc2c(C#N)c(N3CCCCC3)nc(N)c2c(N)n1 | -21% | 0% | ?
22 | COc1ccccc1-c1nc(C#N)c(N2CCc3ccccc3C2)o1 | -16% | 1% | ·
23 | COc1cc2c(C#N)c(N3CCc4ccccc4C3)nc(N)c2c(N)n1 | -17% | 3% | -29%
24 | COc1cc2c(C#N)c(N3CCOCC3)nc(N)c2c(N)n1 | -3% | -1% | ?
25 | CCN(CC)c1nc(N)c2c(N)nc(OC)cc2c1C#N | · | 0% | -18%
26 | COc1cc(NC(=O)COC(=O)[C@@H]2CCCN2S(=O)(=O)c2ccc(Cl)cc2)cc(OC)c1OC | 1% | 0% | ·
27 | COc1ccc2c(COC(=O)[C@@H]3CCCN3S(=O)(=O)c3ccc(Cl)cc3)cc(=O)oc2c1 | · | 0% | 1%
28 | CCC(=O)N1CCc2cc(S(=O)(=O)CCC(=O)N3CCN(c4ccccc4Cl)CC3)ccc21 | 0% | 0% | ?
29 | CCOc1ccc(OC(=O)c2cn(-c3cccc(OC)c3)c(=O)c3ccccc23)cc1 | 1% | 0% | ·
30 | COC(=O)c1ccc(C(=O)OC)c(NC(=O)COC(=O)C2CCCCC2)c1 | 0% | 0% | 3%

entry | A549 tox | p53 reactivation | ClpP mod
21 | -23% | 27% | 28µM*
22 | -2% | ? | 17%
23 | -16% | 2% | 28µM*
24 | ? | ? | 16µM*
25 | -11% | · | 4%
26 | 0% | -19% | -1%
27 | -2% | 7% | 25µM*
28 | 0% | · | 1%
29 | 0% | · | -11%
30 | 1% | -7% | ?

Values by screen from above.
Nrf2 ARE act for nos. 19–23: ?, 2%, 0%, 1%, 3%

(list continues)
entry | SMILES | miR-21 FLuc | Nrf2 ARE act | Nrf2 block
31 | COC(=O)c1ccc(C(=O)OC)c(NC(=O)COC(=O)C2CCC(C(C)(C)C)CC2)c1 (stereo not given) | 0% | 0% | -30%
32 | COc1cc(OC)c(C2C3=C(CCCC3=O)Nc3nc4ccccc4n32)cc1OC (stereo not given) | -6% | 1% | -19%
33 | COc1ccc(C2C(C(=O)c3ccccc3)=C(C)Nc3nc4ccccc4n32)c(OC)c1 (stereo not given) | -22% | 1% | 6%
34 | C/C(=N\Nc1ccc2nncn2n1)c1ccc(Cl)s1 | -7% | 7.9µM* | -5%
35 | Cc1oc(-c2ccccc2F)nc1CS(=O)(=O)CC(=O)N1CCN(c2ccc(Cl)cc2)CC1 | ? | 0% | 5.8µM*
36 | Cc1oc(-c2ccccc2F)nc1CS(=O)(=O)CC(=O)N1CCCCCC1 | 1% | 0% | -6%
37 | CCOc1ccccc1NC(=O)CN1C(=O)C2(SCC(=O)N2c2cccc(F)c2)c2ccccc21 (stereo not given) | -5% | 0% | ?
38 | CS(=O)(=O)c1ccc(CNC(=O)C2(C(F)(F)F)C/C(=C\Cc3ccccc3)CCCO2)cc1 (stereo not given) | · | 4% | 18µM*!
39 | Cn1c(=O)c2nc(NCc3ccccc3)sc2n(C)c1=O | · | 2.5µM* | ?
40 | COc1ccc(-c2cc(C3CCN(c4ccc(C(C)=O)cc4[N+](=O)[O-])CC3)[nH]n2)cc1 | 26% | -1% | 16µM*

entry | A549 tox | p53 reactivation | ClpP mod
31 | -19% | -1% | 28µM*
32 | -17% | 2% | 25µM*
33 | -2% | ? | 1%
34 | 0% | -10% | -2%
35 | ? | · | -12%
36 | 4% | -1% | -15%
37 | -2% | · | 0%
38 | 9% | · | -5%
39 | -1% | · | ·
40 | ? | -3% | 3%

(more compounds)
entry | SMILES | miR-21 FLuc | Nrf2 ARE act | Nrf2 block
41 | CC(=O)N1CCN(c2ccnc3cc(Cl)ccc23)CC1 | 9% | 0% | ?
42 | CCCCNC(=O)N1CCN(c2ccnc3cc(Cl)ccc23)CC1 | 8% | 0% | 10µM*
43 | O=C(Nc1cc(F)ccc1F)N1CCN(c2ccnc3cc(Cl)ccc23)CC1 | 21% | 3% | 16µM*
44 | Cc1cccc(C)c1NC(=O)N1CCN(c2nc3ccccc3s2)CC1 | 3% | 1% | 4.6µM*

entry | A549 tox | p53 reactivation | ClpP mod
41 | 2% | -4% | ·
42 | -4% | -12% | 1%
43 | -2% | -6% | -1%
44 | -18% | -2% | 37%

High-throughput results (PubChem)
